Measurements from patent US20240409609A1.

Protein sequences, listed by entry. Tags and fused reporters are not part of them. Lines headed by an entry give the natural chain unless they say otherwise; changes in a name come on top. Chains listed by the source or under a name are the forms on record and can include a tag or linker. Residues count along the entry.
UniProt P00533, 25-1210 limits assumed: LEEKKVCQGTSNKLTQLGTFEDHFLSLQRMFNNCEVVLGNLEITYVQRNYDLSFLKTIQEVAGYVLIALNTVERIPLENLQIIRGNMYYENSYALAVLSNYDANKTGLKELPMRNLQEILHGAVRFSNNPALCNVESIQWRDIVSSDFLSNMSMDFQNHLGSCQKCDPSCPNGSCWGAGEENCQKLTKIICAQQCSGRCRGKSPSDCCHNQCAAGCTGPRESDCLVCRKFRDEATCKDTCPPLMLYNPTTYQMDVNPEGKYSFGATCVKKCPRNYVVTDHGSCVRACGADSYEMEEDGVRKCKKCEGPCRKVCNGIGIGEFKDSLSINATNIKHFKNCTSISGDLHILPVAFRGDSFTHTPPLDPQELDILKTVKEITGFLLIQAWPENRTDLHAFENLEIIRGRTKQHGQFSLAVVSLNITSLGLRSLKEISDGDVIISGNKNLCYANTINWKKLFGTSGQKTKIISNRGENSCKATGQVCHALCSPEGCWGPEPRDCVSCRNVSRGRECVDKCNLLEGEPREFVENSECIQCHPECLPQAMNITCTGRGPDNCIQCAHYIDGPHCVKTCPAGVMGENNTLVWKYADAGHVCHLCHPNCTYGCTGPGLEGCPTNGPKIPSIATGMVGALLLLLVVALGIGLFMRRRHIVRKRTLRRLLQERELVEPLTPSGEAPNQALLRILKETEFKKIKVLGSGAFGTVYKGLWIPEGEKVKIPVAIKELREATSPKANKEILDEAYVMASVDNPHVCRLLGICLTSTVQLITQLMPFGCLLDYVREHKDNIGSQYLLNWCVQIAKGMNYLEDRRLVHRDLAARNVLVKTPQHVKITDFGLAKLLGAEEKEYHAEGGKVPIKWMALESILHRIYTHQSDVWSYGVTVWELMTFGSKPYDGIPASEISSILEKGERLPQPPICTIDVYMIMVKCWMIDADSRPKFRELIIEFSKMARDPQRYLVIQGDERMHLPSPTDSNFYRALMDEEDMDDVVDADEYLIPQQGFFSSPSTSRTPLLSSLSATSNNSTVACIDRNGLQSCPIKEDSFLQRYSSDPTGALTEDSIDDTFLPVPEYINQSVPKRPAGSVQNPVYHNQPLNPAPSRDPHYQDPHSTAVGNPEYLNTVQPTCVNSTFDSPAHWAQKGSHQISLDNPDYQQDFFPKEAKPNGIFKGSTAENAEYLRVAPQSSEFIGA
UniProt P00533, 668-1210 limits assumed: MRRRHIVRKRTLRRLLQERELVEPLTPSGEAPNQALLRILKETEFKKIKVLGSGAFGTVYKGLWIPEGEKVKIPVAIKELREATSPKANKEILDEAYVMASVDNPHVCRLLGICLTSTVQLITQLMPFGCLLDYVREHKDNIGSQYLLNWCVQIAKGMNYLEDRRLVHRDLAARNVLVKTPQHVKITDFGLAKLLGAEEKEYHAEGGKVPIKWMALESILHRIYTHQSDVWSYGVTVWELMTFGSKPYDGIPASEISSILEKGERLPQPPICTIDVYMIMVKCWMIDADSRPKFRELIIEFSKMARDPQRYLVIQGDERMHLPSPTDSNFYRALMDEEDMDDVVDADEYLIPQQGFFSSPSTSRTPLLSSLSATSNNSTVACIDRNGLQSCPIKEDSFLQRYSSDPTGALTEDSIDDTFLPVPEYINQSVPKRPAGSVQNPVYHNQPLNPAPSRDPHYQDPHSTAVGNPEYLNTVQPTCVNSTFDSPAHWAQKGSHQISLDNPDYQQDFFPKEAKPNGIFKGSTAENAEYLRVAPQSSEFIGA
UniProt P00533, 25-1210 T790M/C797S/L858R limits assumed: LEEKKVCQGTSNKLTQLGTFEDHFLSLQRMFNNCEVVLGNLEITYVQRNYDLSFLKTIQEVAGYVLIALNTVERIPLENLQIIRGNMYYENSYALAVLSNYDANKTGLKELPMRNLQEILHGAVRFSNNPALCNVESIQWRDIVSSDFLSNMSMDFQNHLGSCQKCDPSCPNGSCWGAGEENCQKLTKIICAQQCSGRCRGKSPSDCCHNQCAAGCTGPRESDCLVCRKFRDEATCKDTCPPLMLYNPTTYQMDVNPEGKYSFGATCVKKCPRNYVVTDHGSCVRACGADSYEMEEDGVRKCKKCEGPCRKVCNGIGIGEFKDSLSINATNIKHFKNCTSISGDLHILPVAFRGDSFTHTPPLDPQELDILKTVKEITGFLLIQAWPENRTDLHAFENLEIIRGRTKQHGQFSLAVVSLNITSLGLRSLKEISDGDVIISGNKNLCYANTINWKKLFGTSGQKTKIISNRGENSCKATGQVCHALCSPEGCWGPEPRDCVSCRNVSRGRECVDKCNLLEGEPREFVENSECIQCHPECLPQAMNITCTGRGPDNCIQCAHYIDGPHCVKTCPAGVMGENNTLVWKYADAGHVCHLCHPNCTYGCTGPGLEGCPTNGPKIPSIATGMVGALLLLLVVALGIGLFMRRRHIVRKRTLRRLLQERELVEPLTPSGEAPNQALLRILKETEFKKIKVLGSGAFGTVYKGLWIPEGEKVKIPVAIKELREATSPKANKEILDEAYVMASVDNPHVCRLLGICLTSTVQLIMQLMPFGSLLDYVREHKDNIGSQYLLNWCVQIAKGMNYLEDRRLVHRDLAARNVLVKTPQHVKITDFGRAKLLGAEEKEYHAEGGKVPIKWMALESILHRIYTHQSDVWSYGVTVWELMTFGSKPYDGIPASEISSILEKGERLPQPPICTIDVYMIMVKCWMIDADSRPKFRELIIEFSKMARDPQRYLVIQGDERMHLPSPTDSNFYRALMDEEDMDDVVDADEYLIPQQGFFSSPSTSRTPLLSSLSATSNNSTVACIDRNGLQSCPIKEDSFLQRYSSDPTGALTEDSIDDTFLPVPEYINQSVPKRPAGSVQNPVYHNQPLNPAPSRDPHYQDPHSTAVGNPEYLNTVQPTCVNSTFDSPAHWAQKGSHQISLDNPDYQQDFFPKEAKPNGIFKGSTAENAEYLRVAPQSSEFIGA
UniProt P00533, with tags, fused parts or gaps limits assumed, stated change not applied: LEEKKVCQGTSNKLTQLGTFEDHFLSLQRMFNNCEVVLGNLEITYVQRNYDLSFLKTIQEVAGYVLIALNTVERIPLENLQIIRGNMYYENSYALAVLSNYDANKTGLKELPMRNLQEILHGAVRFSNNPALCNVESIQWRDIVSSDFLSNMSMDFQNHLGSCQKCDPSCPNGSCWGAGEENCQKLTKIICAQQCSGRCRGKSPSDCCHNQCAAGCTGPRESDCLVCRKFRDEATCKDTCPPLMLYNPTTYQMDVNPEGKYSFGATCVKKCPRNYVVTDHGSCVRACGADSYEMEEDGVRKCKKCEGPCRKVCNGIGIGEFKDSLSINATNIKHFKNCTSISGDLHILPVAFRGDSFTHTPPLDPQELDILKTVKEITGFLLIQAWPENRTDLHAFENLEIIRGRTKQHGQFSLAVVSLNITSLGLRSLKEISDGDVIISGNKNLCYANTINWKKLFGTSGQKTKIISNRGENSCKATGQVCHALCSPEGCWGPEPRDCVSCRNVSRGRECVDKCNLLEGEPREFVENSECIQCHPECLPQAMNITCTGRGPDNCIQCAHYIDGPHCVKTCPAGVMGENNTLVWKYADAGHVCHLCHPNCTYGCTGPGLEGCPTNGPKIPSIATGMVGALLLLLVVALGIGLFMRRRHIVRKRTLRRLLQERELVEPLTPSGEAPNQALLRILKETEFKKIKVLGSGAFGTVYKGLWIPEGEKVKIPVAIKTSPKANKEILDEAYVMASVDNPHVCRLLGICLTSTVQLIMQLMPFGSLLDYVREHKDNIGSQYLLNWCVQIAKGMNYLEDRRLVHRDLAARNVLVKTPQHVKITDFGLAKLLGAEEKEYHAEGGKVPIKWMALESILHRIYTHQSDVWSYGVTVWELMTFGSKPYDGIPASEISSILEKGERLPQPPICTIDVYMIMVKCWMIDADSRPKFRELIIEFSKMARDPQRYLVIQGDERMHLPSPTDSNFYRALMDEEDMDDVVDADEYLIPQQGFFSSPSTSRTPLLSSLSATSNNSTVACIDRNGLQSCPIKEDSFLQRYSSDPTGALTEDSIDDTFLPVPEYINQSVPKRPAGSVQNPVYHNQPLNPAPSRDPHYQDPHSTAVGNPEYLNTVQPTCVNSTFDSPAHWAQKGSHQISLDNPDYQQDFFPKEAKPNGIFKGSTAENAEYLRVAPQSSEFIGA

Assays:
EGFR WT in Ba/F3 cells = EGFR WT in Ba/F3 cells (Homo sapiens (Human), UniProt P00533); experiment: Ba/F3 pEGFR assay (AlphaLISA p-EGFR Tyr1068); type: cell-based; settings: read-out: pEGFR Ba/F3 WT IC50; 2 hrs treatment, media supplemented with EGF
[1] = target: EGFR del746-750 T790M C797S in Ba/F3 cells (Homo sapiens (Human), UniProt P00533, C797S/DEL746-750/T790M); experiment: Ba/F3 pEGFR assay (AlphaLISA p-EGFR Tyr1068); type: cell-based; settings: read-out: pEGFR Ba/F3 del19/T790M/C797S IC50; 2 hrs treatment
[2] = target: EGFR T790M C797S L858R in Ba/F3 cells (Homo sapiens (Human), UniProt P00533, C797S/L858R/T790M); experiment: Ba/F3 pEGFR assay (AlphaLISA p-EGFR Tyr1068); type: cell-based; settings: read-out: pEGFR Ba/F3 L858R/T790M/C797S IC50; 2 hrs treatment
EGFR WT = EGFR WT (Homo sapiens (Human), UniProt P00533); experiment: EGFR biochemical assay (AssayQuant chelation-enhanced fluorescence); settings: read-out: AssayQuant EGFR WT IC50; 30 min preincubation, reaction time 360 min

**Q.** Which IC50 (EGFR WT in Ba/F3 cells) does the source give for `C=CC(=O)Nc1cc(Oc2cccc(O)c2C=O)cc(C(=O)N=c2[nH]c3ccc(CN4CCN(C)CC4)cc3n2CC(C)(C)O)c1` here?
**A.** 4.61 µM

**Q.** What about the IC50 [1] of the same molecule?
**A.** 1.79 µM

**Q.** And the IC50 [2]?
**A.** 0.771 µM

**Q.** What about the IC50 (EGFR WT) of the same molecule?
**A.** 0.104 µM
